This note sets out measurements from US20230241102A1, “FORMULATIONS OF CALCIUM AND PHOSPHATE FOR ORAL INFLAMMATION” (Bausch Health Companies Inc., priority 2014, published 2023).

The series in a line: Visual solubility test: components mixed in 30 ml tap water, assessed visually for turbidity, particles in suspension or precipitate. The settings on record: Table 1 weights in 30 ml tap water, room temperature, hand-stirred 30 seconds to 1 minute.

Monobasic Sodium Phosphate: the “Visual Observations” value is reported as “Dissolved (30 sec)”.
